The results in this text go back to article PMC3764209, “Experimentally Validated Novel Inhibitors of Helicobacter pylori Phosphopantetheine Adenylyltransferase Discovered by Virtual High-Throughput Screening” (PLoS ONE, 2013).

Chains of the proteins cited; added tags and fusions are not shown. Lines headed by an entry give the natural chain unless they say otherwise; changes in a name come on top.
UniProt O26010: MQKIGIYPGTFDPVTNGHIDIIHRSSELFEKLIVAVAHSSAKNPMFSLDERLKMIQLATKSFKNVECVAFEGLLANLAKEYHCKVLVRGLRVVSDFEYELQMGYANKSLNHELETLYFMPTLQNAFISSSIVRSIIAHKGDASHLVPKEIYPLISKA

The target in this test is T1, phosphopantetheine adenylyltransferase (HpPPAT) (Helicobacter pylori, UniProt O26010).
T1 construct: gene coaD
Briefly: biochemical.

The structures appear in SMILES notation.

What is called Kd is the constant that tells how readily two partners part at equilibrium. Read a high Kd as lower affinity. `CN(Cc1cnc2nc(N)nc(N)c2n1)c1ccc(C(=O)N[C@H](CCC(=O)O)C(=O)O)cc1` [compound 72440, D-amethopterin] gave a Kd of 31.2 ± 0.34 µM.
